Assays:
[1] = target: soluble human BACE1 catalytic domain (Homo sapiens (Human), UniProt P56817); assay: BACE1 HTRF FRET assay; details: read-out: BACE1 Ki; Ki calculated from IC50 using the Cheng-Prusoff equation
human autoBACE-2 = human autoBACE-2 (Homo sapiens (Human), UniProt Q9Y5Z0); assay: BACE-2 assay (BACE-HTRF, time-resolved endpoint proteolysis); details: read-out: BACE2 Ki; Ki calculated from IC50 using the Cheng-Prusoff equation

Chains of the proteins cited; added tags and fusions are not shown. Residues count along the entry.
UniProt P56817, 75-416 limits assumed: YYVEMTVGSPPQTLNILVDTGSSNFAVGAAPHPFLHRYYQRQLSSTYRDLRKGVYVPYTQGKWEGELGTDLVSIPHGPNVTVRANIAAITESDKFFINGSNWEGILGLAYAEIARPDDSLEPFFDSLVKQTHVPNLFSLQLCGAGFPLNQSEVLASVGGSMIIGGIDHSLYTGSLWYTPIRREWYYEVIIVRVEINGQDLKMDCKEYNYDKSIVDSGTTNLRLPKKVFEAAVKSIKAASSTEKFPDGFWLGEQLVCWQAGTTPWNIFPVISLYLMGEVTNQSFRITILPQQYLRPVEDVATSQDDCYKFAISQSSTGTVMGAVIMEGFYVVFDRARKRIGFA
UniProt Q9Y5Z0, 63-473 limits assumed: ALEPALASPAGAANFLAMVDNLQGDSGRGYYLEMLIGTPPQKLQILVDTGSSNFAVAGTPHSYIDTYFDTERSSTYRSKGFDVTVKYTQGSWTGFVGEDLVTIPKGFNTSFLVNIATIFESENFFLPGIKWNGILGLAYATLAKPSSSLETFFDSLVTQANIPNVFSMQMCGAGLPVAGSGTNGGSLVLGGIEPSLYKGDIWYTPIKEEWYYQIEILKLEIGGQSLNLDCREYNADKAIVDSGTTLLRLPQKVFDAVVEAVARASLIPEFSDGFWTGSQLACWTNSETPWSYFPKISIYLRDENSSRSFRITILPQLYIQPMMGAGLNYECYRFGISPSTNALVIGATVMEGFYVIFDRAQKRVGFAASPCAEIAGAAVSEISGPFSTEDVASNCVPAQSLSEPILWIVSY

With `CN1C(=N)N[C@](C)(c2cc(-c3cccc(-c4ncco4)c3)ccc2F)CS1(=O)=O` the Ki [1] was 1.95 µM and the Ki (human autoBACE-2) was 0.219 µM.
With `CN1C(=N)N[C@](C)(c2sc(-c3cncc(-c4nnco4)c3)cc2Cl)CS1(=O)=O` the Ki [1] was 0.0037 µM and the Ki (human autoBACE-2) was 0.0089 µM.

From US9416129B2, “Tricyclic substituted thiadiazine dioxide compounds as BACE inhibitors, compositions and their use” (Merck Sharp & Dohme Corp., priority 2012, dated 2016)
